This passage reports activation results from PubChem BioAssay AID717 (Columbia University Molecular Screening Center, 2007).

By UniProt entry, the sequences of proteins in these tests, tags left out.
UniProt P34913, whole entry: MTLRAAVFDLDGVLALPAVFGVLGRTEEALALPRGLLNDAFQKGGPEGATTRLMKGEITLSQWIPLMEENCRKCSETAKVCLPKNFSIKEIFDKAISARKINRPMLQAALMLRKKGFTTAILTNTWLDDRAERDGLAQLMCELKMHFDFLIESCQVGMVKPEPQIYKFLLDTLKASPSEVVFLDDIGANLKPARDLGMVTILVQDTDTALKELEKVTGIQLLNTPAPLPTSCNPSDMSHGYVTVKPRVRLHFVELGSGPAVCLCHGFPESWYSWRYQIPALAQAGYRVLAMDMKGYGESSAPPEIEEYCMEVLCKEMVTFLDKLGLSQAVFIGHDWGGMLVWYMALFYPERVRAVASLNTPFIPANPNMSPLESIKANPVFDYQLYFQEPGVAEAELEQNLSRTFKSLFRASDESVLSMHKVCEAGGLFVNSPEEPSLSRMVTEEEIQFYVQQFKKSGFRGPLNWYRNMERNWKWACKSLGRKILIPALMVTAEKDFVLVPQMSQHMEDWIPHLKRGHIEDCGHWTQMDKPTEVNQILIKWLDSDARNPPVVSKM

This is a selection; strong and weak results do not stand in their true shares. The source made the active and inactive calls. Rule as the data show it: active = activation above about 37%; inactive = the rest.

In the test the target is Bifunctional epoxide hydrolase 2 (Homo sapiens) (UniProt P34913). The test is described as follows: sEH enzyme activity enhancers – biochemical, human sEH, primary screen (AID 717). Particulars: purified human sEH enzymatic activity, activator screen; at 2 µM; stronger effect = higher value.
In the case of `CCN(CC)CC(O)COC(=O)C(O)(c1ccccc1)C1CCCCC1` (centres undefined), the activation is inactive: 12.8%.
With `COc1ccccc1OP(C)(=O)Nc1c(C)n(C)n(-c2ccccc2)c1=O` (centres undefined), the activation is inactive: -4.1%.
With `CP(=O)(Oc1ccccc1)N1CCOC1=O` (centres undefined), the activation is inactive: 3.7%.
As for `CC(C)(C)c1ccc(OP(C)(=O)O)cc1`, the activation is inactive: -2.1%.
Consider `CP(=O)(Nc1ccc(Cl)cc1)Oc1ccc(F)cc1` (centres undefined), for which the activation was inactive: -7.6%.
Take `CP(=O)(OC12CC3CC(CC(C3)C1)C2)OC12CC3CC(CC(C3)C1)C2`: the activation is inactive: 12.2%.
Then `COc1ccccc1OP(C)(=O)Nc1ccc(C)c(C)c1` (centres undefined), with inactive: 6.8%; and `Cc1nc2ccc3ccccc3c2o1.O=[N+]([O-])c1cc([N+](=O)[O-])c(O)c([N+](=O)[O-])c1`, with inactive: 6.5%.
For `COc1ccc(OP(C)(=O)Nc2ccccn2)cc1` (centres undefined), the activation is inactive: 0.7%.
Then `CN(C)CCOC(=O)C(O)(c1ccccc1)C1CCCC1` (centres undefined), with inactive: 23.2%; and `Cc1c(NP(C)(=O)Oc2ccc(C(C)C)cc2)c(=O)n(-c2ccccc2)n1C` (centres undefined), with inactive: -7.5%.
`CP(=O)(Nc1ccccn1)Oc1ccccc1` (centres undefined): the activation was inactive: -7.4%.
Then `CCc1ccc(OP(C)(=O)O)cc1`, with inactive: -5.6%; and `CP(=O)(Nc1ccccc1F)Oc1ccccc1` (centres undefined), with inactive: 2.7%.
Then `CCN(CC)CCCOC(=O)C(O)(c1ccccc1)C1CCCCC1` (centres undefined), with inactive: -3.5%; and `CP(=O)(Nc1ccccc1)Oc1ccc(F)cc1` (centres undefined), with inactive: 10.9%.
With `COc1ccc(OP(C)(=O)Nc2cccc(Br)c2)cc1` (centres undefined), the activation is inactive: -4.9%.
Then `CN(C)CCOC(=O)C(O)(c1ccccc1)C1CCCCC1` (centres undefined), with inactive: -12.1%; and `CCOP(C)(=S)SCC(=O)NC(C)(CC)C(=O)O` (centres undefined), with inactive: -1.3%.
Then `CP(=O)(Nc1ccc2c(c1)OCCO2)Oc1ccccc1` (centres undefined), with inactive: 2.7%.
In the case of `Cc1nc2ccc3ccccc3c2s1.O=[N+]([O-])c1cc([N+](=O)[O-])c(O)c([N+](=O)[O-])c1`, the activation was inactive: -11.2%.
Then `COc1ccccc1OP(C)(=O)Nc1c(C)cccc1C` (centres undefined), with inactive: -6%.
Then `Cc1cc(C)cc(OP(C)(=O)Nc2ccc(C)cc2C)c1` (centres undefined), with inactive: -35.5%; and `Cc1ccc(C)c(NP(C)(=O)Oc2ccccc2)c1` (centres undefined), with inactive: 24.6%.
`Cc1cc(C)cc(OP(C)(=O)Nc2ccccn2)c1` (centres undefined): the activation was inactive: -11.1%.
Then `COc1ccc(OP(C)(=O)Nc2cccc(F)c2)cc1` (centres undefined), with inactive: -2.6%; and `CP(=S)(Nn1cnnc1)Oc1ccccc1` (centres undefined), with inactive: -0.6%; and `CP(=O)(NC(=O)Nc1ccccc1)Oc1ccccc1` (centres undefined), with inactive: 6.8%.
As for `CP(=O)(Nc1ccccn1)Oc1ccc(Cl)cc1` (centres undefined), the activation was inactive: 0.5%.
